The assay deals with Kappa-type opioid receptor (Homo sapiens, UniProt P41145).

Sequences of proteins named here, by UniProt entry; tags and fusion partners are left off. A change or cut given only in a name is not applied to a line headed by its entry.
UniProt P41145: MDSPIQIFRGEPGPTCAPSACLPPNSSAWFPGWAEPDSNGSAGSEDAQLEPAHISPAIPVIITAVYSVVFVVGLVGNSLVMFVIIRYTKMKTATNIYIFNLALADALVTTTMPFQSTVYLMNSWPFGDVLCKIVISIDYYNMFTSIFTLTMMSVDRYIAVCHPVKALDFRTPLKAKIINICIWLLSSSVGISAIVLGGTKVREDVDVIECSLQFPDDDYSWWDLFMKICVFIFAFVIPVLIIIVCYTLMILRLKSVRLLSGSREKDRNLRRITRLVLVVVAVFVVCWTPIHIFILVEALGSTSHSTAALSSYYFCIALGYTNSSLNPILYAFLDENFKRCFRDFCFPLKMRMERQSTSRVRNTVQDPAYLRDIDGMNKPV

For orientation: EC50 means the concentration needed to bring the measured effect to its halfway point. Low readings indicate an effect from little substance, high ones a need for much substance. Compound `CN(C(=O)Cc1ccccc1)[C@H]1C[C@@]2(CCCO2)CC[C@@H]1N1CCCC1` returned an EC50 of 12 nM.
